According to ChEMBL document CHEMBL5375987, “Structural Fusion of Natural and Synthetic Ligand Features Boosts RXR Agonist Potency” (J Med Chem, 2023):
The source made the active and inactive calls.

By UniProt entry, the sequences of proteins in these tests, tags left out. Where a name states a change or a piece, a line headed by the entry shows the natural chain unless it says otherwise.
UniProt P37231: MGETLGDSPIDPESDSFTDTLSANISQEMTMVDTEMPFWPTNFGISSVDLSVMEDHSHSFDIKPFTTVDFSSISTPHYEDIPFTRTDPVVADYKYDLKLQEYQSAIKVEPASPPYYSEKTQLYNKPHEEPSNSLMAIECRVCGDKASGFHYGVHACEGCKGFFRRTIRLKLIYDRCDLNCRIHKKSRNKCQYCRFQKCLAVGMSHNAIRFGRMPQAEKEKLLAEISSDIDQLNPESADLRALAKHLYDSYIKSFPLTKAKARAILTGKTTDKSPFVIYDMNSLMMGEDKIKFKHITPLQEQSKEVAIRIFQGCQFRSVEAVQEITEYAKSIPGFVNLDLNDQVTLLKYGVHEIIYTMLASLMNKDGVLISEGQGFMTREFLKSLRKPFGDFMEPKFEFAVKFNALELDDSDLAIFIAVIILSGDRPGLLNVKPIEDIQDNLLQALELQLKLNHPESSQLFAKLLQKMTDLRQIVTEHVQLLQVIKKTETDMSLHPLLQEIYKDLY
UniProt P10826, whole entry: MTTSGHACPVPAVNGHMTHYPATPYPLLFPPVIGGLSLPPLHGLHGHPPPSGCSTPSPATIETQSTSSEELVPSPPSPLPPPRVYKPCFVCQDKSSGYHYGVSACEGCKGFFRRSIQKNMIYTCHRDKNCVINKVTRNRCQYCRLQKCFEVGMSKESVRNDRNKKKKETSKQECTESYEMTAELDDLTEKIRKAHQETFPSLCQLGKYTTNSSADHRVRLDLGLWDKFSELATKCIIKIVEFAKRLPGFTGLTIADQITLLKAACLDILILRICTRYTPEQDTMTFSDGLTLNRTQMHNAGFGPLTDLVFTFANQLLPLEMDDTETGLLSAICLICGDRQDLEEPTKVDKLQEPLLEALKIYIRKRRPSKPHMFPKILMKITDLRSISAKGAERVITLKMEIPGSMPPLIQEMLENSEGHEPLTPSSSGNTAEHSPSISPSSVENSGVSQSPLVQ
UniProt Q13133, whole entry: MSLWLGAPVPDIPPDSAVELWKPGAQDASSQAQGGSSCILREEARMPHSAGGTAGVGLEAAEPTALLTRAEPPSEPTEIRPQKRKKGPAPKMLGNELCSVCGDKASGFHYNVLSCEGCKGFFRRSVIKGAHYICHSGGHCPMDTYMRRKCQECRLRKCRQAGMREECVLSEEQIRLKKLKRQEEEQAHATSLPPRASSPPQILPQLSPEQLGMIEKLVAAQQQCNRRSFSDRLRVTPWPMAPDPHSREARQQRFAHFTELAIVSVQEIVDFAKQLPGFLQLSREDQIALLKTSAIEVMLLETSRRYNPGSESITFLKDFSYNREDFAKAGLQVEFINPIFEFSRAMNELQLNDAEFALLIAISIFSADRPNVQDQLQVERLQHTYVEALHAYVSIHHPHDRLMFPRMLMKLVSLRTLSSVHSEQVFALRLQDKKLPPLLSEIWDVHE
UniProt P43354, whole entry: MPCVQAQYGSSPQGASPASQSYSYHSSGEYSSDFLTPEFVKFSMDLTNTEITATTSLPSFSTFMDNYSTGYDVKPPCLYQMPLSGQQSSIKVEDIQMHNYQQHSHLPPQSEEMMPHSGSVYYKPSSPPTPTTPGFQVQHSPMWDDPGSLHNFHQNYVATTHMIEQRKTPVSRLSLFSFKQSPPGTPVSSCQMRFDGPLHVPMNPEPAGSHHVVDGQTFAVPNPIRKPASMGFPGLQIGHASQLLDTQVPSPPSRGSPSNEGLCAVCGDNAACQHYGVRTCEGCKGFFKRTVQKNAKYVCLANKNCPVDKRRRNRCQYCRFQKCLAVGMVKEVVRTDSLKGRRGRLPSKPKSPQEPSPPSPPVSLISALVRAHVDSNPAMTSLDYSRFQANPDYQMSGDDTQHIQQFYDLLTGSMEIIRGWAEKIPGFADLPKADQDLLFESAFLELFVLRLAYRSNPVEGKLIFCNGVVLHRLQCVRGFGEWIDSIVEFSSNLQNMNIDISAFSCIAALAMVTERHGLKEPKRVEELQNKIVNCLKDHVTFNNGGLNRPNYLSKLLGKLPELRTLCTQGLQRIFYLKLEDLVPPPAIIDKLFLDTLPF
UniProt P13631, whole entry: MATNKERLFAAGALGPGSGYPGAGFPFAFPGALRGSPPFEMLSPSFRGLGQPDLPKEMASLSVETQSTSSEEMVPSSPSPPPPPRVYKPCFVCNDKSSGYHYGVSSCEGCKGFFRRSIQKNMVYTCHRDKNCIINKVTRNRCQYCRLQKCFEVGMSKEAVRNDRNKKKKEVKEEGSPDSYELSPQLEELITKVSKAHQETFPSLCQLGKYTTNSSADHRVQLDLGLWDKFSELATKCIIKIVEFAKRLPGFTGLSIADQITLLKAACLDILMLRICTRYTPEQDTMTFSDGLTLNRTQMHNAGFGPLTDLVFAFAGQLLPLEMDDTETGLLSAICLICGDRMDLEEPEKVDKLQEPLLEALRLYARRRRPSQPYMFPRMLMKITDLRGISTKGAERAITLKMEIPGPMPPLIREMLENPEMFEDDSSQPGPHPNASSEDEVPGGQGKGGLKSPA
UniProt Q92570: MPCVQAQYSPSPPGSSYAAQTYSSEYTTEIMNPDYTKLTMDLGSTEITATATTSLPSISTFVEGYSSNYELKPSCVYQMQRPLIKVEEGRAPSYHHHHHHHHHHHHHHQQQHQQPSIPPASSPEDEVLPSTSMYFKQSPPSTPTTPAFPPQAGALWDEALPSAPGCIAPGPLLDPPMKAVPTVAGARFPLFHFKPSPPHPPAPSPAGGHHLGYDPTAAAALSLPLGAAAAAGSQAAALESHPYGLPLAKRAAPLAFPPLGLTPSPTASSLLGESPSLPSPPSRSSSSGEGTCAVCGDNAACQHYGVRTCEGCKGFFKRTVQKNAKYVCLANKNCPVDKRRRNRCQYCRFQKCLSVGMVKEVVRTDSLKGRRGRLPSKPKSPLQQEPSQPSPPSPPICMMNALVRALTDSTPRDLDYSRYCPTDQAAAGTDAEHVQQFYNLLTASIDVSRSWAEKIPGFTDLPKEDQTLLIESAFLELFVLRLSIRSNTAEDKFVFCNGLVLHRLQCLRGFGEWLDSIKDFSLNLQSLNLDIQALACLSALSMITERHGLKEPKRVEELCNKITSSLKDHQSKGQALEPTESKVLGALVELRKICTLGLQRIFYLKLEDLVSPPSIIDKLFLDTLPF
UniProt P51449: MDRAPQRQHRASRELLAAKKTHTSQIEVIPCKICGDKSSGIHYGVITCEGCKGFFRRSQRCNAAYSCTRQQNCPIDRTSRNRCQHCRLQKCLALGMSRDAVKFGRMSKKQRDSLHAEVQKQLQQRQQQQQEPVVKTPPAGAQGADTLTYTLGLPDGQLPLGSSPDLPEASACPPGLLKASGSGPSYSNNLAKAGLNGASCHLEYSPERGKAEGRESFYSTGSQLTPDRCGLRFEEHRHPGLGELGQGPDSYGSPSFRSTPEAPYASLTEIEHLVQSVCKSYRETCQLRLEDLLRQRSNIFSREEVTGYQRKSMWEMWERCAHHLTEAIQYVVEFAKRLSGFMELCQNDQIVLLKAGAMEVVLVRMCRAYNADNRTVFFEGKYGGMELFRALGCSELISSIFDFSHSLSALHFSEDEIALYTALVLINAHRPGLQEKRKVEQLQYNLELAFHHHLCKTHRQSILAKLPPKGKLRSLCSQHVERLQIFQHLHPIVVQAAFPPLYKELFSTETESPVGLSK

Legend:
[1] = molecular target: T1, Nuclear receptor subfamily 1 group D member 2 (Homo sapiens) (UniProt Q14995); assay: Antagonist activity at NR1D2 (unknown origin) at 1 uM
T1 sequence (whole entry): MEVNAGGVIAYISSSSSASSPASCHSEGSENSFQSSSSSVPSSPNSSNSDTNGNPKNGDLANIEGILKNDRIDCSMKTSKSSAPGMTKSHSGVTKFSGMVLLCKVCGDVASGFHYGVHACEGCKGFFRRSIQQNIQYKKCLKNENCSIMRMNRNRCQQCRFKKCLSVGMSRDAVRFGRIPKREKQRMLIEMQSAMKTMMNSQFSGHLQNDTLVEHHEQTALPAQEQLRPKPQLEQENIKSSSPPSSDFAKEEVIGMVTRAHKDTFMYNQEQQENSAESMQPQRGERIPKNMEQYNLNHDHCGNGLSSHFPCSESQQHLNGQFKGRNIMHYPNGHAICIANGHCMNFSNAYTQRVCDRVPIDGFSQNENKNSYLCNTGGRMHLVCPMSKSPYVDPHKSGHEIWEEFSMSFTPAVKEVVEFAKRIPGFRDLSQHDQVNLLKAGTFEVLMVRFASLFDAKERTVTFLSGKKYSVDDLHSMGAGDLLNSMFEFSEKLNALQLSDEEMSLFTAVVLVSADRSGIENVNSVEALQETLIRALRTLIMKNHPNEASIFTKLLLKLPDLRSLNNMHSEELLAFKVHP

[2] = molecular target: Peroxisome proliferator-activated receptor gamma (Homo sapiens) (UniProt P37231); assay: Inverse agonist activity at NR1C3 (unknown origin) at 1 uM
[3] = molecular target: Peroxisome proliferator-activated receptor gamma (Homo sapiens) (UniProt P37231); assay: Antagonist activity at NR1C3 (unknown origin) at 1 uM
[4] = molecular target: T2, Nuclear receptor ROR-alpha (Homo sapiens) (UniProt P35398); assay: Inverse agonist activity at NR1F1 (unknown origin) at 1 uM
T2 sequence (whole entry): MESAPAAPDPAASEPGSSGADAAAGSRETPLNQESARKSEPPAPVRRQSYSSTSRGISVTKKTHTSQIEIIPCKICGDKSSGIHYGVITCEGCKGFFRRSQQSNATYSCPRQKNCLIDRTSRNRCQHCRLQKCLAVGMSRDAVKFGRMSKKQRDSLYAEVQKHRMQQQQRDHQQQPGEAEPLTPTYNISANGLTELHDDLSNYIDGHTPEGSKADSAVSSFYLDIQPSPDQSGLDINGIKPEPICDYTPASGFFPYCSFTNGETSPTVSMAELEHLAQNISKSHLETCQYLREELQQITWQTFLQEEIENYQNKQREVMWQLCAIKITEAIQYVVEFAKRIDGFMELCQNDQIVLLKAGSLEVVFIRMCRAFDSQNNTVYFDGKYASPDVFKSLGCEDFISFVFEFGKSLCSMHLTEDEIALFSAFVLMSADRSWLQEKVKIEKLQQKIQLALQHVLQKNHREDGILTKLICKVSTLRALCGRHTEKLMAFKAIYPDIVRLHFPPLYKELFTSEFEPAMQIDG

[5] = molecular target: T3, Nuclear receptor subfamily 2 group C member 2 (Homo sapiens) (UniProt P49116); assay: Agonist activity at NR2C2 (unknown origin) at 1 uM
T3 sequence (whole entry): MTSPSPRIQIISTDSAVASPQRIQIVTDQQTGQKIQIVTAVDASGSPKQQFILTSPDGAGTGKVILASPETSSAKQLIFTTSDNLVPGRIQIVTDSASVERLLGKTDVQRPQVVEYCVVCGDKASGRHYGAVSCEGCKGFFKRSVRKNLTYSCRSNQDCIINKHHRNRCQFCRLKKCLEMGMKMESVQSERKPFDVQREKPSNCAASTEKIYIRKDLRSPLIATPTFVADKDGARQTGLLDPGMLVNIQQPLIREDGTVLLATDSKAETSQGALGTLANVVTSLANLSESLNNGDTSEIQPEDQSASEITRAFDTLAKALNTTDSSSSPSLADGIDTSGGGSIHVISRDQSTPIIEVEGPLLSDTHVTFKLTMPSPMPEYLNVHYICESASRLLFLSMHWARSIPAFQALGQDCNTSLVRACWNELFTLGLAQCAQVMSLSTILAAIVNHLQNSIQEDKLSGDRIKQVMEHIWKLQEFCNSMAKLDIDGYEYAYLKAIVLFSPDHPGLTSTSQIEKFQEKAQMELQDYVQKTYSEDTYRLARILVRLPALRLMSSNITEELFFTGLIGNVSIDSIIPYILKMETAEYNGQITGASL

[6] = molecular target: Retinoic acid receptor beta (Homo sapiens) (UniProt P10826); assay: Agonist activity at NR1B2 (unknown origin) at 1 uM
[7] = molecular target: T1, Nuclear receptor subfamily 1 group D member 2 (Homo sapiens); assay: Inverse agonist activity at NR1D2 (unknown origin) at 1 uM
[8] = molecular target: Oxysterols receptor LXR-alpha (Homo sapiens) (UniProt Q13133); assay: Antagonist activity at NR1H3 (unknown origin) at 1 uM
[9] = molecular target: Nuclear receptor subfamily 4 group A member 2 (Homo sapiens) (UniProt P43354); assay: Antagonist activity at NR4A2 (unknown origin) at 1 uM
[10] = molecular target: T3, Nuclear receptor subfamily 2 group C member 2 (Homo sapiens); assay: Antagonist activity at NR2C2 (unknown origin) at 1 uM
[11] = molecular target: T2, Nuclear receptor ROR-alpha (Homo sapiens); assay: Agonist activity at NR1F1 (unknown origin) at 1 uM
[12] = molecular target: T3, Nuclear receptor subfamily 2 group C member 2 (Homo sapiens); assay: Inverse agonist activity at NR2C2 (unknown origin) at 1 uM
[13] = molecular target: Retinoic acid receptor gamma (Homo sapiens) (UniProt P13631); assay: Agonist activity at NR1B3 (unknown origin) at 1 uM
[14] = molecular target: Retinoic acid receptor gamma (Homo sapiens) (UniProt P13631); assay: Antagonist activity at NR1B3 (unknown origin) at 1 uM
[15] = molecular target: Nuclear receptor subfamily 4 group A member 3 (Homo sapiens) (UniProt Q92570); assay: Antagonist activity at NR4A3 (unknown origin) at 1 uM
[16] = molecular target: Nuclear receptor subfamily 4 group A member 2 (Homo sapiens) (UniProt P43354); assay: Inverse agonist activity at NR4A2 (unknown origin) at 1 uM
[17] = molecular target: T4, Peroxisome proliferator-activated receptor delta (Homo sapiens) (UniProt Q03181); assay: Antagonist activity at NR1C2 (unknown origin) at 1 uM
T4 sequence (whole entry): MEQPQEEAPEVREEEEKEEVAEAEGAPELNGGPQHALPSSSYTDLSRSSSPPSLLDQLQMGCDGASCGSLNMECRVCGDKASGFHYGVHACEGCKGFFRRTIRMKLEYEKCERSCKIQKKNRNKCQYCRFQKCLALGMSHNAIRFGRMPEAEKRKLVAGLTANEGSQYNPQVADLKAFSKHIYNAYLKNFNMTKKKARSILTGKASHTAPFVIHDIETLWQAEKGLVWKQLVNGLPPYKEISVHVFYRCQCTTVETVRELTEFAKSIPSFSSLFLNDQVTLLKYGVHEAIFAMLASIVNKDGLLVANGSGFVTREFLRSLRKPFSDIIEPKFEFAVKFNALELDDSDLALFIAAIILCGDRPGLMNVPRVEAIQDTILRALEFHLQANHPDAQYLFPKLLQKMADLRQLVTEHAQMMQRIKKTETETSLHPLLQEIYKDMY

[18] = molecular target: Nuclear receptor ROR-gamma (Homo sapiens) (UniProt P51449); assay: Inverse agonist activity at NR1F3 (unknown origin) at 1 uM
[19] = molecular target: Nuclear receptor subfamily 4 group A member 3 (Homo sapiens) (UniProt Q92570); assay: Agonist activity at NR4A3 (unknown origin) at 1 uM

Measured: Activity

O=C(O)[C@@H]1C[C@H]1c1nc(-c2ccccc2)c(-c2cc(C(F)(F)F)cc(C(F)(F)F)c2)o1 (racemic)
inactive: [1] | [2] | [3] | [4] | [5] | [6] | [7] | [8] | [9] | [10] | [11] | [12] | [13] | [14] | [15] | [16] | [17] | [18] | [19]
